# Measured values taken from article PMC5073051 (European journal of medicinal chemistry, 2016).
# Legend:
# MDA-MB-231 cells [1] = experiment: HGF-induced cell proliferation MTT assay, MDA-MB-231; conditions: Homo sapiens, MDA-MB-231, 72 h, read-out: Antiproliferative activity IC50 ± SEM, MDA-MB-231, MTT, HGF 40 ng/mL, 72 h, 2D monolayer
# MDA-MB-231 cells [2] = experiment: HGF-induced cell migration wound-healing assay; conditions: Homo sapiens, MDA-MB-231, 24 h, read-out: Antimigratory activity IC50 ± SEM, MDA-MB-231, wound-healing assay, HGF 40 ng/mL, 24 h
smiles,measurement,setting,value
"C/C=C(/C=O)[C@@H](CC=O)CC(=O)OCCc1ccc(O)cc1 [Compound 1, (-)-Oleocanthal, reference compound]",IC50,MDA-MB-231 cells [1],15 ± 1.4 µM
same,IC50,MDA-MB-231 cells [2],7.5 ± 1.1 µM
